According to patent US20240246905A1 (University of Leicester, priority 2021, published 2024):

Substance: phenol vinyl isocyanide [(E)-4]
- storage stability (dilute solution in acid free chloroform in the dark at −10° C.): several weeks without decomposition
- stability on standing at rt (rt): readily polymerizing
